The record followed here is US11932602B2, “Method for preparing nicotinamide mononucleotide cocrystal” (BONTAC BIO-ENGINEERING(SHENZHEN) CO., LTD, priority 2021, dated 2024).

For the series the following is noted: screened with a sieve (1.00 mm, No. 18), poured into glass graduated measuring cylinder, apparent volume. As to the method:
The tops were scraped flat. The apparent volumes were recorded. The bulk densities were calculated.
In the case of “nicotinamide mononucleotide dimethyl sulfoxide solvate crystal (form 2) [reference compound]”, the Bulk density is 0.22 g/mL. For “nicotinamide mononucleotide-isonicotine cocrystal [Cocrystal in example 1]” the value was 0.67 g/mL; for “nicotinamide mononucleotide-isonicotine cocrystal [Cocrystal in example 3]”, 0.68 g/mL; for “nicotinamide mononucleotide-isonicotine cocrystal [Cocrystal in example 4]”, 0.56 g/mL.
